The values below come from PubChem BioAssay AID720543 (The Scripps Research Institute Molecular Screening Center, 2013).

By UniProt entry, the sequences of proteins in these tests, tags left out.
UniProt Q8VD66, whole entry: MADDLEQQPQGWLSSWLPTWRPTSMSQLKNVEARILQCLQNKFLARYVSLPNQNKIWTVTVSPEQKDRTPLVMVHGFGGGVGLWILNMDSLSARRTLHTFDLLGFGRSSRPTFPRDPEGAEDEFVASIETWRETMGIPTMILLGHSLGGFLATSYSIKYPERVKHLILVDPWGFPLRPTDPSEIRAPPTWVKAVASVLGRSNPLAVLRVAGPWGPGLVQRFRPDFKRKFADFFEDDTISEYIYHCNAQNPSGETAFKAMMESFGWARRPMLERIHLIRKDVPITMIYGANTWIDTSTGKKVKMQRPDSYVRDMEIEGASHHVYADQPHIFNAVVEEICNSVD

The list shows a part of the results, in another mix than the full data. Some of these compounds have results that are not shown, active ones among them. Calls of active or inactive are those of the source.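 How the source made its calls: active means inhibition exceeding the mean over every tested compound plus 3 SD (cut at about 30% in these data); inactive means the rest.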

A word on the inhibition: it is the relative decrease from the control value, in per cent.

This experiment has as its target (Lyso)-N-acylphosphatidylethanolamine lipase (Mus musculus) (UniProt Q8VD66). The experiment is described as follows: mouse ABHD4 hydrolase activity blockers – biochemical, fluorescence polarization, primary screen (AID 720543).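 Further: 0% = plate median of compound wells and 100% = S159A mutant with DMSO.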 The conditions noted are these: purified mABHD4, FP-Rh probe fluorescence polarization; at 8.92 µM; stronger effect = higher value. The gist of the method:
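Test system: mABHD4 protein; Read-out basis: % inhibition; Incubation: 45 min + 60 min at 25 °C; Repeats: single replicate; Technique: fluorescence polarization with parallel and perpendicular emission, 525/598 nm; Compound: 8.92 µM, single dose; Benchmarks: full inhibition S159A mutant plus DMSO, zero as sample-well median.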
On the technique in general: In fluorescence polarisation assays a small probe gives low polarisation when free and higher when bound to something large.
Take `CN(C)C1(CNC(=O)c2ccc(Br)cc2)CCCCC1`: the inhibition was inactive: 4.5%. Then `COc1cc(C(=O)NCC2(N(C)C)CCCCC2)c([N+](=O)[O-])cc1OC`, with inactive: 1.13%. Then `COc1cccc(C(=O)NCC2(N3CCCCC3)CCCCC2)c1`, with inactive: -0.75%. For `COc1ccc(Cl)cc1C(=O)NCC1(N(C)C)CCCCC1` the value was inactive: -3.33%.

For `O=C(NCC1(N2CCCCC2)CCCCC1)c1cccc(Cl)c1`, the inhibition is inactive: -2.48%. Then `O=C(OC1CN2CCC1CC2)C(CO)(c1ccccc1)c1ccccc1` (stereo unspecified), with inactive: -0.47%; and `COc1ccc(Br)c(C(=O)NCC2(N3CCCCC3)CCCCC2)c1`, with inactive: -3.5%.

With `C=C(C)C#CC(O)(C(=O)OC1CCN(C)CC1)c1ccccc1` (stereo unspecified), the inhibition was inactive: -8.8%. For the compound `CN(C)c1cccc(C(=O)NCC2(N(C)C)CCCCC2)c1`, the inhibition was inactive: -2.57%.

For the compound `CC(C)Oc1ccc(C(=O)NCC2(N(C)C)CCCCC2)cc1`, the inhibition is inactive: -0.44%. Then `O=C(OCCN1CCCC1)C(O)(c1ccccc1)c1ccccc1`, with inactive: -30%; and `O=C(NCC1(N2CCCCC2)CCCCC1)c1cc([N+](=O)[O-])ccc1Cl`, with inactive: -0.66%; and `CN1[C@@H]2CC[C@H]1CC(OC(=O)C(O)(c1ccccc1)c1ccccc1)C2` (stereo partly specified), with inactive: 2.41%.

In the case of `CC(C)N1C(=O)CC2(CCN(CCOC(=O)C(O)(c3ccccc3)c3ccccc3)CC2)C1=O`, the inhibition is inactive: 6.32%. In the case of `CCN(CC)CC(C)C(C)OC(=O)C(O)(c1ccccc1)c1ccccc1` (stereo unspecified), the inhibition was inactive: 6.9%. Consider `COc1cc(SC)ccc1C(=O)NCC1(N(C)C)CCCCC1`, for which the inhibition is inactive: 2.38%. For the compound `Cc1ccc(C(=O)NCC2(N3CCCCC3)CCCCC2)cc1`, the inhibition was inactive: -0.92%. In the case of `Cc1ccccc1C(=O)NCC1(N2CCCCC2)CCCCC1`, the inhibition is inactive: 3.48%. Then `CN(C)C1CCCC1OC(=O)C(O)(c1ccccc1)c1ccccc1` (stereo unspecified), with inactive: 3.26%; and `CN(C)c1ccc(C(=O)NCC2(N(C)C)CCCCC2)cc1`, with inactive: 2.08%; and `C=CCN1CCN(CCOC(=O)C(O)(c2ccccc2)c2ccccc2)CC1`, with inactive: -2.02%. For `O=C(NCC1(N2CCCCC2)CCCCC1)c1cc(F)c(F)cc1Cl` the value was inactive: -6%; for `Cc1cc(C(=O)NCC2(N3CCCCC3)CCCCC2)ccc1[N+](=O)[O-]`, inactive: -0.53%. Turning to `CCN1CCCC(OC(=O)C2(O)c3ccccc3C=Cc3ccccc32)C1` (stereo unspecified), the inhibition is inactive: -7.59%. Then `O=C(NCC1(N2CCCCC2)CCCCC1)c1cccc(Br)c1`, with inactive: 9.09%.

As for `COc1ccc(C(=O)NCC2(N(C)C)CCCCC2)cc1`, the inhibition is inactive: 6.76%.
